Data reported in article PMC5298005 (Clinical Pharmacology in Drug Development, 2016).

Assay: Phase 1 drug-interaction study, sirolimus with isavuconazole: pharmacokinetics
Type: in vivo, human (healthy subjects)
Details: both, human, whole blood, po, 2 mg

In the case of `CO[C@H]1C[C@@H]2CC[C@@H](C)[C@@](O)(O2)C(=O)C(=O)N2CCCC[C@H]2C(=O)O[C@H]([C@H](C)C[C@@H]2CC[C@@H](O)[C@H](OC)C2)CC(=O)[C@H](C)/C=C(\C)[C@@H](O)[C@@H](OC)C(=O)[C@H](C)C[C@H](C)/C=C/C=C/C=C/1C` [Sirolimus, sirolimus], the Tmax is reported as 2.5 h.
